What was measured:
[1] = from literature; cited from earlier work
tKSI^D40N = tKSI^D40N (Comamonas testosteroni, UniProt P00947, D38N); conditions: pH 7.2, −3 °C

The chains behind the UniProt entries cited, without tags or fusion partners.
UniProt P00947, whole entry D38N, looked up: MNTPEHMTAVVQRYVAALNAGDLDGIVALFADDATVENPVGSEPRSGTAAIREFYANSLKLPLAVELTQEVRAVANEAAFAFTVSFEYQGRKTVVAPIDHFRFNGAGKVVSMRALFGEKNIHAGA

O=[N+]([O-])c1ccc(O)cc1[N+](=O)[O-]
pKa [1]: 5.4 | δ1, chemical shift of most downfield peak in complex (tKSI^D40N): 14.2 ppm | δ2, chemical shift of second downfield peak in complex (tKSI^D40N): 14.0 ppm

Source: PMC1413570, “Testing Electrostatic Complementarity in Enzyme Catalysis: Hydrogen Bonding in the Ketosteroid Isomerase Oxyanion Hole” (PLoS Biology, 2006)
